Measured affinities in a library of Ab-14 heavy chain variants

All variants were tested on one target, the spike HR2 peptide PDVDLGDISGINAS (SARS-CoV-2).

Parent: Ab-14, a human scFv built as VH, a 15-residue (Gly4Ser)3 linker, VL. Only the CDRs of the heavy chain vary.
VH: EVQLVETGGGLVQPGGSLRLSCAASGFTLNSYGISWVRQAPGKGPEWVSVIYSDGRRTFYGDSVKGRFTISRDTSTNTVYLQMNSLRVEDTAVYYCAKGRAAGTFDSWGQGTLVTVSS
VL: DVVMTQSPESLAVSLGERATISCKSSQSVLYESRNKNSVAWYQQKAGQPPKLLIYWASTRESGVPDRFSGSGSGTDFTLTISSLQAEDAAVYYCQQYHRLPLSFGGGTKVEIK

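Phage display of a naive human antibody library on the peptide gave the parent. This is the validation round: designs drawn from the data on random variants, tested in the same kind of assay. Group labels follow the data file (Ctrl: baseline library sampled from a position-specific scoring matrix, with some repeated check sequences; GPLM: also part of the Gaussian process libraries; HC: hill climbing; Gibbs: Gibbs sampling; a sequence that several methods proposed may carry one label only). The assay is AlphaSeq: two haploid yeast populations carry antibody and antigen on their surface. After mating in shaken culture at 30 °C for 16 h, diploids were selected and their barcode pairs sequenced. Scores were corrected for input abundance and mapped to Kd with protein pairs of known affinity run in the same pool. Mating was done six times.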

Each variant is given by its three heavy chain CDRs, as the data file delimits them; those of the parent are GFTLNSYGIS, VIYSDGRRTFYGDSVK, GRAAGTFDS. Scale: log10 of Kd in nM, estimated from mating counts; low values are strong binders. "nd" marks a missing value. The strain was present, yet no cells mated with the target were sequenced in that replicate, which points to weak or no binding. Values of this round are not directly comparable with the first-round values of the same sequences.

CDR-H1,CDR-H2,CDR-H3,group,log10 Kd (nM) by replicate,control signals
GFTLNDYGIS,VIYSDGRRTFYGDSVK,GRATGTFDS,Ctrl,nd nd nd nd nd nd,0/18
GYTLNEYGIS,VIYSDGRRTAYGDSVK,GRPAGTFDL,Ctrl,nd 1.32 nd nd nd nd,0/18
GFTLNEYGIS,VIYSDGRRTFYDDSVK,GRAAGTFDS,Ctrl+GPLM_HC,0.69 -0.14 0.09 0.57 0.44 0.14; -0.06 0.09 -0.07 -0.14 0.14 0.18,2/36 (2.03)
GFTLNSYGIS,VIYSDGRRTFYGDSVR,GRAMGTFDS,Ctrl,nd nd nd nd nd nd,0/18
GFTLNSYGIS,VIYSDGRRTFYGDSVD,GRATGWFDS,Ctrl,nd 1.45 nd nd nd nd,0/18
GFTLNSYGIS,VIYSDGYRTFYDDSVK,GKAAGTFWS,Ctrl,nd nd nd nd nd nd,0/18
GFALNSYGIS,VIYSDGRRTFYGGSVK,GRAAGTFKS,Ctrl,1.52 nd nd nd nd nd,0/18
GFWLDSYGIS,VIYADGRRTFYQDEVK,GRAAGTFDS,Ctrl,nd nd nd nd nd nd,0/18
GFTLLSYGIS,VIYSDGRRTFYQDSVK,GRAKGTFDS,Ctrl,nd nd nd nd nd nd,0/18
GFTLNSYGSS,VIYSDGRRTFYGDSVK,GRHAGTFFS,Ctrl,nd nd nd nd nd nd,0/18
GFTLNSYGIS,VIYSDGRRTFYGPSVK,GQAAGTYDS,Ctrl,nd nd nd nd nd nd,0/18
GFTLESYGIS,VIYSDGRRTFYGDSVR,GRAAGTFDV,Ctrl,1.68 nd nd nd 3.29 1.69,0/18
GFDLNSYGIS,VIYSDGRRTFYGDSVK,GRLAWTFDS,Ctrl,nd nd nd nd nd nd,0/18
GFTLNSYGIS,VIYSDGRRTAYGDSVK,GRAAGTFDS,Ctrl+GPLM_Gibbs,0.99 0.56 0.64 1.65 0.88 0.65; nd nd 1.41 nd nd nd,0/36
GFTLTSYGIS,VIYSDGQRTFFGDSVK,GKAAGAFDY,Ctrl,nd nd nd nd nd nd,0/18
GFTLNQYGIS,VIYSDGRRTFYGDSVK,GRIAGTFDS,Ctrl,-0.06 0.36 0.80 0.71 1.41 0.64,0/18
GFTLNSYGIS,VIYFDGERTFYDDSVK,GRAAGCFDS,Ctrl,nd nd nd nd nd nd,0/18
GFTLNQYGIS,VIYSDGRRTFYEDSVK,GRAKGTFPS,Ctrl,nd nd nd nd 3.57 nd,1/18 (1.87)
GFTLNSFGIS,VIYSDGRRTFYGDSVK,GAAAGTFDS,Ctrl,1.02 1.19 1.56 0.65 1.07 nd,0/18
GFTLMSYGIS,VIYSDGRRTFYADSVK,GRAAGTFDS,Ctrl,1.05 1.07 1.00 1.51 0.79 2.82,0/18
GFTLNSYGIS,VIYSDGRRTFYGDSVK,GRAHGTFEQ,Ctrl,nd nd nd nd nd nd,0/18
GFNLNEYGIS,VIYFDGLRTQYGDSVK,GRAAGHFDA,Ctrl,nd nd nd nd nd nd,1/18 (2.60)
GFTLNSYGIS,VIYADGMRTFYGDKVK,GRAAGTFDS,Ctrl,1.24 1.13 2.24 0.97 1.11 1.66,0/18
GFTLNSYGIS,VIYSDGCRTAYGDSVK,GRIAGTFDS,Ctrl,1.85 1.96 0.37 nd 1.65 1.99,1/18 (2.08)
GFTLNSYGIS,VIYSDGRRLFYGDSVK,GRAAGTFDS,Ctrl,nd nd nd nd nd nd,0/18
DFTLSSYGIS,VIYSDGRRTFYGDSVK,GQEAGQFDS,Ctrl,nd nd 1.95 nd nd nd,0/18
GFTLNSYGIS,VIYSDGRRTFYGDSFK,GRAPGTFKA,Ctrl,nd nd nd nd nd nd,0/18
GFTLNSYGIS,VIYSDGRRTFYIDSVK,GEASVTFDS,Ctrl,nd nd nd nd nd nd,1/18 (1.67)
GFTLNSYGIS,VIYSDGRRTFYGDSVK,GRACGTFDS,Ctrl,nd nd nd nd nd nd,0/18
GFTLNSYGIS,VIYSDGRRTFYGDSVD,GRAAGTFDS,Ctrl,nd nd nd nd nd nd,0/18
GFTLENYGIS,VIYSDGRRTFYGDSVK,GEACLTFDS,Ctrl,nd 1.60 1.86 2.82 2.07 2.10,0/18
GFSINSYGIS,VIYSDGRRTFYGDSVK,GFNAGAFDS,Ctrl,1.32 1.00 0.75 0.60 0.95 1.00,0/18
GFTLNSYGIS,VIYSDGFRTAYGDSVK,GRAAGTFDS,Ctrl,nd 0.56 nd -0.01 nd 0.87,0/18
GFTLNEYGIS,VIYSDGRRTFYGDDVK,GRAHGVFIS,Ctrl,nd nd nd nd nd nd,1/18 (-0.30)
GFTLNSPGIS,VIYSDGRRTFYGDSVK,GRAAGTFDS,Ctrl,nd nd nd nd nd nd,0/18
GFTINSYGIS,VIYSDGRRTAYQDSVK,GRAPGTFDS,Ctrl,2.67 3.09 nd 2.73 2.70 2.55,5/18 (2.57)
GFTLNDYGIS,VIYSDGRRTFYIDSVK,DRAAGTFDS,Ctrl,nd nd nd nd nd nd,0/18
GFTLNSYGIS,VIYSDGRRTFYGDSVK,GAAAGSIDS,Ctrl,nd 0.15 nd nd nd 0.76,0/18
GFHLNSYGIS,VDYSDGRRTFYGDSVK,GRAAGTFDS,Ctrl,nd nd nd nd nd nd,0/18
GFTLMSYGIS,VIYSDGIRTFYQDSVK,GRAAGTFDS,Ctrl,nd 2.73 nd nd nd nd,0/18
GETLNSYGIS,VIYSDGRRTFYGDSVK,IRAAKTFDS,Ctrl,nd nd nd nd nd nd,0/18
GFTLNEYGIS,VIYFDGRRTSYGDDVK,GRATGTFCS,Ctrl,nd nd nd nd nd nd,0/18

Picked from the list: the 5 lowest averages where every replicate gave a value.

CDR-H1,CDR-H2,CDR-H3,group,log10 Kd (nM) by replicate,control signals
GFTLNEYGIS,VIYSDGRRTFYDDSVK,GRAAGTFDS,Ctrl+GPLM_HC,0.69 -0.14 0.09 0.57 0.44 0.14; -0.06 0.09 -0.07 -0.14 0.14 0.18,2/36 (2.03)
GFTLNQYGIS,VIYSDGRRTFYGDSVK,GRIAGTFDS,Ctrl,-0.06 0.36 0.80 0.71 1.41 0.64,0/18
GFSINSYGIS,VIYSDGRRTFYGDSVK,GFNAGAFDS,Ctrl,1.32 1.00 0.75 0.60 0.95 1.00,0/18
GFTLMSYGIS,VIYSDGRRTFYADSVK,GRAAGTFDS,Ctrl,1.05 1.07 1.00 1.51 0.79 2.82,0/18
GFTLNSYGIS,VIYADGMRTFYGDKVK,GRAAGTFDS,Ctrl,1.24 1.13 2.24 0.97 1.11 1.66,0/18

Nonspecific signal, from three strains lacking the peptide, appeared in 1% of pairings of all heavy chain designs, centred on 2.08 (5% of these signals below 0.84); values are not corrected for it. For each scFv, signals with the empty controls are counted beside the result, with their mean in brackets. The authors averaged sequences with at least three values out of six and counted those with two or fewer as poor binders. Some sequences occur more than once in the pool; their replicates are listed entry by entry, parted by semicolons.

Reference: Li et al. 2023, doi:10.1038/s41467-023-39022-2. File: FLAb, binding data.